Drawing on patent US7087634B2, “Cyclic AMP-specific phosphodiesterase inhibitors” (ICOS Corporation, priority 1999, dated 2006), this text covers IC50 for one molecule.

By UniProt entry, the sequences of proteins in these tests, tags left out. Where a name states a change or a piece, a line headed by the entry shows the natural chain unless it says otherwise.
UniProt Q07343: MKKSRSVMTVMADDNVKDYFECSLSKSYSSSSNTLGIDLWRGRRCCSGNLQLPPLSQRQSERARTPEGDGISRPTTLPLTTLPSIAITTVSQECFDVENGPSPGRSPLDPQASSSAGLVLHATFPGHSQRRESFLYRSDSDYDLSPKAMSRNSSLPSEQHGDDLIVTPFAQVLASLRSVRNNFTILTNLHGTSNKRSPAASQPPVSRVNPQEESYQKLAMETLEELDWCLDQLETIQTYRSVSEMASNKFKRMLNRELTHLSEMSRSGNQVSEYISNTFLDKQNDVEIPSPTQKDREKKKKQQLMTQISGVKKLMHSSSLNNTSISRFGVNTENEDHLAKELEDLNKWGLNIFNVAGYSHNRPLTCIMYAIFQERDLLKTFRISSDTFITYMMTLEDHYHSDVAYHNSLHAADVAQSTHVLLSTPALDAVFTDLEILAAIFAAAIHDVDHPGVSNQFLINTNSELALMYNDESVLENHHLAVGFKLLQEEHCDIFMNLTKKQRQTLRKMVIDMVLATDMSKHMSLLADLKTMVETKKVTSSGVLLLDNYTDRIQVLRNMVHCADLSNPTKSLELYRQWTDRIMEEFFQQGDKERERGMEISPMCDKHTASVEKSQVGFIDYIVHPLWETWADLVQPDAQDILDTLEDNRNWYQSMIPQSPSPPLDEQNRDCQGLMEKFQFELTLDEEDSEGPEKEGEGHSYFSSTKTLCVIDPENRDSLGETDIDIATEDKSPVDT

The target in one assay is T1, human recombinant PDE4B (Homo sapiens, UniProt Q07343).
T1 construct: made in house; host or cells: Saccharomyces cerevisiae strain YI23 harboring HDUN2.32
The assay is described as follows: Inhibition of human recombinant PDE4B. The class given is biochemical.

For the next assay, the target named is T2, human recombinant PDE4 (Homo sapiens, UniProt Q07343).
T2 construct: made in house; host or cells: Saccharomyces cerevisiae BJ2-54
The assay is described as follows: Inhibition of human recombinant PDE4 (charcoal separation PDE assay). The class given is biochemical. The note with it: PDE4 IC50 (μM), structure table. The procedure:
The compounds of structural formula (I) were tested for an ability to inhibit PDE4. […] The IC50 value for compounds of structural formula (I) were determined using human recombinant PDE4.
Phosphodiesterase activity of the preparations was determined as follows. […] In this assay, PDE activity converts [32P]cAMP or [32P]cGMP to the corresponding [32P]5′-AMP or [32P]5′-GMP in proportion to the amount of PDE activity present. The [32P]5′-AMP or [32P]5′-GMP then was quantitatively converted to free [32P]phosphate and unlabeled adenosine or guanosine by the action of snake venom 5′-nucleotidase. […] The assay was performed at 30° C. in a 100 μL reaction mixture containing (final concentrations) 40 mM Tris HCl (pH 8.0), 1 μM ZnSO4, 5 mM MgCl2, and 0.1 mg/mL bovine serum albumin (BSA). Alternatively, in assays assessing PDE1-specific activity, incubation mixtures further incorporated the use of 0.1 mM CaCl2 and 10 μg/mL calmodulin. PDE enzyme was present in quantities that yield <30% total hydrolysis of substrate (linear assay conditions). The assay was initiated by addition of substrate (1 mM [32P]cAMP or cGMP), and the mixture was incubated for 12 minutes. […] After centrifugation (750×g for 3 minutes) to sediment the charcoal, a sample of the supernatant was taken for radioactivity determination in a scintillation counter and the PDE activity was calculated.

Take `CCOC(=O)c1c(C)nn(-c2cccc([N+](=O)[O-])c2)c1C` [Example 2, 3,5-dimethyl-1-(3-nitrophenyl)-1H-pyrazole-4-carboxylic acid ethyl ester]: the IC50 on human recombinant PDE4B and at human recombinant PDE4 was 0.1 µM in each case.

The term IC50 denotes the midpoint of a concentration-inhibition curve.
